Binding of CDR-mutated scFvs to a peptide of the spike HR2 region

From the AlphaSeq antibody data of Engelhart et al. 2022 (doi:10.1038/s41597-022-01779-4), copy in the FLAb collection.

Target: peptide PDVDLGDISGINAS, taken from heptad repeat 2 (HR2) of SARS-CoV-2 spike.

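Variants in AAYL51 differ from the parent at up to three CDR positions; double and triple changes were sampled at random. The assay is AlphaSeq: two haploid yeast populations carry antibody and antigen on their surface. Mating (16 h, 30 °C) was followed by selection of diploids and sequencing of their barcodes. Read counts were normalised to the haploid input and turned into Kd by a linear fit to BCL2-family pairs of known affinity, for each replicate. The assay was run in three technical replicates.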

The variants keep the light chain, the linker and the frameworks of Ab-91 (scFv order VL, a (GGGGS)3 linker, VH).
VL: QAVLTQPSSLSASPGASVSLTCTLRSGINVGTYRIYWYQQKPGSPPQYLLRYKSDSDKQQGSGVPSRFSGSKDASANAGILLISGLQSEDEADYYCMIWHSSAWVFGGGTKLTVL
VH: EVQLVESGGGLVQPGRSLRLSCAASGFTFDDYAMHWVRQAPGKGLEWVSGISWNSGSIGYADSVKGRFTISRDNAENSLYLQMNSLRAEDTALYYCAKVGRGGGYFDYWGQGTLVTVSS

Variants are written as CDR1, CDR2 and CDR3 of the heavy chain (limits as in the source). Parent: GFTFDDYAMH, GISWNSGSIGYADSVK, VGRGGGYFDY. All variants listed here change G50 of the VH, counted from its first residue. Scale: log10 of Kd in nM, estimated from mating counts; low values are strong binders. The mean shown is taken over the replicates in which the pair was detected. "nd" means that the variant was in the library but no mating with the target was seen in any replicate; the authors take this as a sign of poor binding, and no number exists. Order: sorted from the lowest average up, undetected variants last. As a blank, each scFv also met three strains without target: over library AAYL51, 21% of these pairings were detected, typically at 4.54 and seldom below 3.26. In this assay the parent's reference entry averaged 1.86; its copy inside this library read 0.88.

CDR-H1	CDR-H2	CDR-H3	mean, log10 nM	detected
GFTFDDYAMH	LISWNSGSIGYADSVK	VGRGGGYFYY	3.09	1/3
GFTFDDYAMH	VISWNMGSIGYACSVK	VGRGGGYFDY	3.28	1/3
GFTFDDYAMH	RISWNSGSIGYSDSVK	VGRGEGYFDY	3.32	1/3
GFTFDDYAMH	PIQWNSGSIGYADSVK	VGRGGGYFGY	3.42	1/3
GFTFDDYAMN	LISWNSGSIGYAASVK	VGRGGGYFDY	3.45	1/3
GHTFDDYAMH	DISWNSGSIGYQDSVK	VGRGGGYFDY	3.73	1/3
GFTFDDWAMH	VISWNSGSIGYADCVK	VGRGGGYFDY	3.76	1/3
GFMFDDYAMH	AISWNSCSIGYADSVK	VGRGGGYFDY	4.04	2/3
GFTFDDYAMH	KISWNSGSIGYADSVK	VGHGGGTFDY	4.10	1/3
GFTFDDYAMV	AISWNSGSIGYADSVK	VGRGPGYFDY	4.17	2/3
GFTFDDYAMH	RISWESGSIGYADSVK	VGDGGGYFDY	4.19	1/3
GFTFDDYCMH	TISWRSGSIGYADSVK	VGRGGGYFDY	4.27	2/3
GFTFDDYAMH	YISWNSGSIPYAVSVK	VGRGGGYFDY	4.31	2/3
GCTFDDYAMH	CISWNSFSIGYADSVK	VGRGGGYFDY	4.39	2/3
GFTFDDYLMH	CISWNSGSIGYADSVK	VMRGGGYFDY	4.48	1/3
GYTFDDYAMH	KISWNSGSIGYADSVK	VGRGYGYFDY	4.58	1/3
GFTFDDYAMH	DISWNSGSIGYADSVK	VGIGGGRFDY	4.62	2/3
GFTCDDYAMH	KISWNSGSIGYADSVK	VGRFGGYFDY	4.71	1/3
GFTFDDYAMH	EISWNSGSIGYADSVK	VGRGGSYFDY	4.75	1/3
GFTHDDYAMH	NITWNSGSIGYADSVK	VGRGGGYFDY	4.76	3/3
GFTDDDFAMH	TISWNSGSIGYADSVK	VGRGGGYFDY	4.88	2/3
GFTFDDYAMH	FISWNSGSIGYADSVK	VGRGGGYFDY	5.03	2/3
GFTFDDYAMH	AISWNSGSTGYADSVK	VHRGGGYFDY	5.05	1/3
GFTFDDYAMH	NISWNSGSTGYADSKK	VGRGGGYFDY	5.05	1/3
GFTFDDYAMN	WISWNSGSIGYADSVK	VGRGGGYFWY	5.11	3/3
GFTFDDKAMH	FISWNYGSIGYADSVK	VGRGGGYFDY	5.17	2/3
GFTFDDYAMH	LISWKSGSIGYADSVK	VGRGGGYFDD	5.30	3/3
GFTFDDYAMH	SISWNSGSIGYFDSVK	SGRGGGYFDY	5.31	2/3
GFTVDDYAMH	IISWNSGIIGYADSVK	VGRGGGYFDY	5.50	2/3
GFTFDDYAKH	RISWNSGQIGYADSVK	VGRGGGYFDY	5.52	1/3
GFTFDDYAHH	VISWNSGSIGYADSVK	VYRGGGYFDY	5.85	1/3
GFTFDDNAMH	TISWNSGSIGYAPSVK	VGRGGGYFDY	5.91	2/3
GFTADDYAFH	EISWNSGSIGYADSVK	VGRGGGYFDY	6.05	1/3
GFTFDDYAMH	VISWNSGSIGYADSWK	VGRGEGYFDY	nd	0/3
GFTFDDYAVH	AISWNSGSIGYADSVK	VGRPGGYFDY	nd	0/3
GFTFDDYAMH	KISWNSGSIGYADSVK	VGIGVGYFDY	nd	0/3
GFTFDDYAMY	HISWNSYSIGYADSVK	VGRGGGYFDY	nd	0/3
GFTFDMYAMH	EISWNSGSIGYADSFK	VGRGGGYFDY	nd	0/3
GFTFDDYAMH	FISWNSGSIGYADSVF	VGRGGGYFDY	nd	0/3
GFTFDDYAMH	EISWNSGSIGYADSVK	VGRGTGYFDY	nd	0/3
GFTFDDYAMH	DISWNSGEIGYADSVK	VGYGGGYFDY	nd	0/3
GFTFDDYAMH	RHSWNSGSIGYADSVK	VGRGPGYFDY	nd	0/3
GFTFDCYAMH	IISWNSGSIGYADSVK	VGRGGGYKDY	nd	0/3
GFTFDDYAMI	SISWASGSIGYADSVK	VGRGGGYFDY	nd	0/3
GFTWDDYAMH	AISWNSGSIGSADSVK	VGRGGGYFDY	nd	0/3
GFTFDDYAMH	VISWNSGSIGYADSVK	VQRGHGYFDY	nd	0/3
GFTFDDYAMH	CISWNSGSIGIADSVK	VGRGGGYADY	nd	0/3
GFTFDDYAMH	AISWNSGSIGYADSVK	VTRGGGYFNY	nd	0/3
GFTADDYAMH	RISWNSGSIGYADSVK	VGRGHGYFDY	nd	0/3
EFTFDDYAMH	IISWNSGSIGYADSVK	VGRGGGYVDY	nd	0/3
GFTFDDYHMH	SISWNSGSIGYADSVK	IGRGGGYFDY	nd	0/3
GFTFDEYAMH	RISWNSGSIGYADSVK	VGRGPGYFDY	nd	0/3
GFTFDDYAMH	DISWNSGSIGYADSVK	NGHGGGYFDY	nd	0/3
GFTFDWFAMH	PISWNSGSIGYADSVK	VGRGGGYFDY	nd	0/3
GFTFDDYAMH	AISWNSGSMGYADSVK	VGRGGGYFDY	nd	0/3
GFTFPDYAMH	QISWESGSIGYADSVK	VGRGGGYFDY	nd	0/3
GFTFDDYAMH	WISYNSGSIGYGDSVK	VGRGGGYFDY	nd	0/3
GFTSDDYAMH	KISWNSGTIGYADSVK	VGRGGGYFDY	nd	0/3
GFTFIDYAME	WISWNSGSIGYADSVK	VGRGGGYFDY	nd	0/3
GFTFDDYAMH	DISWNSGSIGNADSVK	VGRGGGYFDY	nd	0/3
QFTFDDYAMH	IISWNSGSIGYADSVK	VGRGGFYFDY	nd	0/3